Patent US5011854A, “Hydroxamic acid derivatives and use thereof in combatting lipoxygenase-mediated diseases” (Kyowa Hakko Kogyo Co. Ltd., priority 1987, dated 1991)

Target: T1, 5-lipoxygenase (Rattus norvegicus, UniProt P12527)
T1 construct: rat basophilic leukemia cells (RBL-1, ATCC No. CRL 1378) were used as the 5-lipoxygenase source; endogenous in cells; host or cells: RBL-1 (rat basophilic leukemia, ATCC CRL 1378)
T1 sequence (P12527 1-673): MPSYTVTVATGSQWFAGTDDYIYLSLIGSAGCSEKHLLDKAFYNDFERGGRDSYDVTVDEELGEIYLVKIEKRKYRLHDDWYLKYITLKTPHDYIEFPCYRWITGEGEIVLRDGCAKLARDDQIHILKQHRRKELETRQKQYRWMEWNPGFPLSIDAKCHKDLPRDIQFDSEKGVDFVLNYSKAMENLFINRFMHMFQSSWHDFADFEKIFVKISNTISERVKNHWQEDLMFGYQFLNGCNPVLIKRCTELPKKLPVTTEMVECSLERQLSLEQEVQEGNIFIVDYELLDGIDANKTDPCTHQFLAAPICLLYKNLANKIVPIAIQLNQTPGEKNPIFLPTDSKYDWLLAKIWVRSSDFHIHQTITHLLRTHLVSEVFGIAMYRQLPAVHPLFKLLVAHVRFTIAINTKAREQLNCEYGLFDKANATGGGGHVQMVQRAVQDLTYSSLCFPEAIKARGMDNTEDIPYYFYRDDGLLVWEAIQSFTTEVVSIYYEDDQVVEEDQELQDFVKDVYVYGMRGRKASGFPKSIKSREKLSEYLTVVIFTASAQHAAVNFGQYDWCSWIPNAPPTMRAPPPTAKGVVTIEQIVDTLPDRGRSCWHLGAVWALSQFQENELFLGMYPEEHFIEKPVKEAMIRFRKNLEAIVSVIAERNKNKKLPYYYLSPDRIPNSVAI
Assay: 5-Lipoxygenase inhibiting activity (Test Example 2, [14C]-arachidonic acid, TLC)
Assay type: biochemical
Conditions: RBL-1 cells as enzyme source; 27 μM [14C]-arachidonic acid; pH 7.4; 37° C., 5 min; TLC/scintillation; read-out: Inhibitory Activity IC50, 5-Lipoxygenase
Description: The compounds listed in Table 3 were tested for their lipoxygenase inhibiting activity by the following methods:
(a') 5-Lipoxygenase inhibiting activity
Essentially, the same method described in the above (a) was used. Thus, rat basophilic leukemia cells (RBL-1, ATCC No. CRL 1378) were used as the 5-lipoxygenase source. These cells were contacted with the test compound in 30 μl of 0.17 M Tris-hydrochloride buffer (pH 7.4) containing […] calcium chloride, 3.3 mM adenosine triphosphate and 1 mM glutathione at 37° C. for 5 minutes. Then, 25 μl of 27 μM [^14 C]-arachidonic acid was added and the enzymatic reaction was allowed to proceed at 37° C. for 5 minutes. To the reaction mixture was added 50 μl of ethyl acetate/methanol/0.2 M citric acid (30/4/1), and the whole mixture was stirred. The reaction product extracted into the ethyl acetate layer was separated by silica gel thin layer chromatography [Merck Art 5631: developing solvent; petroleum ether/ethyl ether/acetic acid (50/50/1)]. The site of the product [^14 C]-5-hydroxy-6,8,11,14-eicosatetraenoic acid was detected by autoradiography, the gel portion corresponding to the site was scraped off and assayed for ^14 C using a liquid scintillation counter, and the yield of the product was determined. […]

- IC50: 6.5 µM
Compound: Cl.NC1=NN(c2cccc(C(F)(F)F)c2)CC1 [BW-755C, 3-amino-1-(3-trifluoromethylphenyl)-2-pyrazoline hydrochloride, reference compound]
